From paper PMC4375888
Blank lines part the entries; values can stand above or below the substance they belong to.

Molecular target: actin (Mg-ATP-actin, chicken muscle; 33% atto488-labelled) (chicken) (UniProt P68139)

decrease in the persistence length of filaments (held by low-density NEM-myosin) with VASP in solution: 50%
Substance: Dd VASP (MBP-VASP, full-length) (from UniProt Q5TJ65 1-380) (natural protein)

decrease in the persistence length of filaments (held by low-density NEM-myosin) with VASP ΔGAB in solution: 50%
Substance: Dd VASP ΔGAB (VASP(delta198-220)) (from UniProt Q5TJ65 1-380) (natural protein)

decrease in the persistence length of filaments (held by low-density NEM-myosin) with NEM-myosin in solution: 30%
Substance: NEM-myosin (chemically inactivated myosin II motor protein) (complex)

decrease in the persistence length of filaments (held by low-density NEM-myosin) with filamin in solution: 30%
Substance: filamin
